From patent US5801191A, “Taxoids” (Biophysica Foundation, priority 1995, dated 1998)

Assays:
[1] = test system: panel of human tumor cell lines; experiment: Cytotoxic activity in a panel of human tumor cell lines as compared to paclitaxel
[2] = Water solubility / formulation in aqueous vehicles

Substance: methyl vinyl ether/maleic anhydride:paclitaxel conjugate [BP-172]
- cytotoxic activity as compared to paclitaxel [1]: cytotoxic activity equal to, or greater than, paclitaxel
- formulation in aqueous vehicles [2]: readily formulated in saline or 5% dextrose; also recorded: readily formulated in standard aqueous vehicles
- water solubility as compared with paclitaxel [2]: more water soluble than paclitaxel

Entries after “also recorded” stand apart in the source; their conditions may differ.
